According to patent US20030036631:

Experiments:
[1] = molecular target: T1, GST-L3cyto-Y667F
T1 chain: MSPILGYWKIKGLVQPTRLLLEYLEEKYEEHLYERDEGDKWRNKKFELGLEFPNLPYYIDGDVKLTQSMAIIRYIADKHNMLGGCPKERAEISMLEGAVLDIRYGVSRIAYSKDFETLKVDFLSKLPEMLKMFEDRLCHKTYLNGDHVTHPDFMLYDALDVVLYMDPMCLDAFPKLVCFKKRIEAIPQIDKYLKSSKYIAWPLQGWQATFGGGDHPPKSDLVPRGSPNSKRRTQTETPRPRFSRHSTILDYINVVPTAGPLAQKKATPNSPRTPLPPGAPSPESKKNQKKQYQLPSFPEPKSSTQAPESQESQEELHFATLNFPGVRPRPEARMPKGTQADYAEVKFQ

[2] = molecular target: T2, L3cyto-Y691F
T2 chain: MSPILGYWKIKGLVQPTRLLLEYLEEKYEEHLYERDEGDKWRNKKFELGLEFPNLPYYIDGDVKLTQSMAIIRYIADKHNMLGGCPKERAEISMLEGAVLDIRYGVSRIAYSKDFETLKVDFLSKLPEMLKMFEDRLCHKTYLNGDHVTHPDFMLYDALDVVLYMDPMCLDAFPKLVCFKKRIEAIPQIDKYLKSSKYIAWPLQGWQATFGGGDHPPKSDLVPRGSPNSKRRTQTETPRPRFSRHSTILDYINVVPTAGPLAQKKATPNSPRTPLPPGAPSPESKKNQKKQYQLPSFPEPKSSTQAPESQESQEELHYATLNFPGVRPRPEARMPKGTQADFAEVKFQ

B1: lck kinase (protein)
chain: GCGCSSHPEDDWMENIDVCENCHYPIVPLDGKGTLLIRNGSEVRDPLVTYEGSNPPASPLQDNLVIALHSYEPSHDGDLGFEKGEQLRILEQSGEWWKAQSLTTGQEGFIPFNFVAKANSLEPEPWFFKNLSRKDAERQLLAPGNTHGSFLIRESESTAGSFSLSVRDFDQNQGEVVKHYKIRNLDNGGFYISPRITFPGLHELVRHYTNASDGLCTRLSRPCQTQKPQKPWWEDEWEVPRETLKLVERLGAGQFGEVWMGYYNGHTKVAVKSLKQGSMSPDAFLAEANLMKQLQHQRLVRLYAVVTQEPIYIITEYMENGSLVDFLKTPSGIKLTINKLLDMAAQIAEGMAFIEERNYIHRDLRAANILVSDTLSCKIADFGLARLIEDNEYTAREGAKFPIKWTAPEAINYGTFTIKSDVWSFGILLTEIVTHGRIPYPGMTNPEVIQNLERGYRMVRPDNCPEELYQLMRLCWKERPEDRPTFDYLRSVLEDFFTATEGQYQPQP
How did the “Decrease in Wild type Phosphorylation” value [1] turn out when B1 was run?
Its value is 50%.

What about the “Decrease in Wild type Phosphorylation” value [2] of the same protein?
The value was 30%.
